Laboratory results taken from US9073974B2, “RGD-containing cyclic peptides” (The Regents of the University of California, priority 2009, dated 2015).

By UniProt entry, the sequences of proteins in these tests, tags left out. Residues count along the entry.
UniProt P05106, 27-788: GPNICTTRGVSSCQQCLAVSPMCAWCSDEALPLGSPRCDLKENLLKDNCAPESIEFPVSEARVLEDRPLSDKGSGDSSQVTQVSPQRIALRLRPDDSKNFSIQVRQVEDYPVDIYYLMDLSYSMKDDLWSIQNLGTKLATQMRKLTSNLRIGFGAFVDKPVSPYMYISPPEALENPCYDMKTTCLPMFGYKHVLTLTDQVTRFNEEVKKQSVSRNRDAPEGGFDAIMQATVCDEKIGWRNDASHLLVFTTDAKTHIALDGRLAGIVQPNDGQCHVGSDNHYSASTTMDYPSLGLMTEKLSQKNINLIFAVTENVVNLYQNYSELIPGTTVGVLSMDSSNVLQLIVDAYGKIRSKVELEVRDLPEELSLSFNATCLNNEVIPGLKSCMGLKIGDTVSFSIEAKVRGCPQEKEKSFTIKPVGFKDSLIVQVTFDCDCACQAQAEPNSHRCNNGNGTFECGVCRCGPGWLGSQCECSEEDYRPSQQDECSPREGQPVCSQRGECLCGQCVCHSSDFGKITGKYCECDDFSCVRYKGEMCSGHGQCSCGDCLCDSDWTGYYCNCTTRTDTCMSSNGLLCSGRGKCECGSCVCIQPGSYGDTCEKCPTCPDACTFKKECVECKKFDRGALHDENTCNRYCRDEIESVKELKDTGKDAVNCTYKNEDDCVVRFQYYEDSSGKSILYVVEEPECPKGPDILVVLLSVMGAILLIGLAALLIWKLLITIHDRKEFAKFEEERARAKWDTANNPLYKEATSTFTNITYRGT
UniProt P06756, 891-1048 partner limits assumed: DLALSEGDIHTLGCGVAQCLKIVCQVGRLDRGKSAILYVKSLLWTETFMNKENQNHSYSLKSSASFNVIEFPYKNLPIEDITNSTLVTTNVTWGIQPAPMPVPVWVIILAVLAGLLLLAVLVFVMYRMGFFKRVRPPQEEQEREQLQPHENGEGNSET
UniProt P06756, 31-889 limits assumed: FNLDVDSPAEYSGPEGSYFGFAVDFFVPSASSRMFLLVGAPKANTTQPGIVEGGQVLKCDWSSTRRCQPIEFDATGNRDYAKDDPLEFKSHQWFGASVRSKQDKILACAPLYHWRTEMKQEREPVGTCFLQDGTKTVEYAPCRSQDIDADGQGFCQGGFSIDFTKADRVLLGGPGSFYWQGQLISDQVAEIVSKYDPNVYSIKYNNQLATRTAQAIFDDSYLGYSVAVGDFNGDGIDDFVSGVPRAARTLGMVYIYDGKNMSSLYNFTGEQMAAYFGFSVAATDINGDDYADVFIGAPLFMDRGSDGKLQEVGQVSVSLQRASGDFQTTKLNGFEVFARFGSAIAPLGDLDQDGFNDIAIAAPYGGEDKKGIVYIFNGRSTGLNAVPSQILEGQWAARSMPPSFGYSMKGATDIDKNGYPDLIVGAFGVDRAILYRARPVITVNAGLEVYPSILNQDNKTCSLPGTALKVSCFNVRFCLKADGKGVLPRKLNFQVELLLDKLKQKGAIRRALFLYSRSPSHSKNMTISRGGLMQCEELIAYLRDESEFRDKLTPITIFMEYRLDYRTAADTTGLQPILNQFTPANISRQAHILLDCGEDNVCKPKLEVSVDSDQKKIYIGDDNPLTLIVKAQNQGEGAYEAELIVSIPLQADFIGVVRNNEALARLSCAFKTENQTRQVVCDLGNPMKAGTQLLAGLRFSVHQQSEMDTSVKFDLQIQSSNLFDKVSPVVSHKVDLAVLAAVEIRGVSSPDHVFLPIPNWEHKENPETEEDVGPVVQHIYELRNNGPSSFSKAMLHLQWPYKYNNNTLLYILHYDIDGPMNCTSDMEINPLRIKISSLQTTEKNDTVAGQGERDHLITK

Assays:
[1] = molecular target: T1, αvβ3 integrin (Homo sapiens, UniProt P05106+P06756); experiment: Inhibition of FITC-Echistatin binding to αvβ3-K562 cells (flow cytometry); parameters: expressed in transfected cells; host or cells: K562 (gift of Dr. Yoshikazu Takada, UC Davis); details: read-out: IC50 (μM) Inhibit FITC-Echistatin binding with αvβ3-K562; biotinylated peptides
Protocol: (§1) The samples were analyzed with Coulter XL-MCL flow cytometry. The histogram and mean fluorescence intensity (MFI) were determined. The apparent Kd, IC50 were calculated using Graph Prism software (≦www.graphpad.com≧).

[2] = molecular target: T1, αvβ3 integrin; experiment: Inhibition of biotinylated LXW7 binding to αvβ3-K562 cells (flow cytometry); parameters: expressed in transfected cells; host or cells: K562 (gift of Dr. Yoshikazu Takada, UC Davis); details: LXW9-92: inhibiting the binding of biotinylated LXW7 against αvβ3-K562 cells; class symbols
Protocol: The apparent IC50 were calculated using Graph Prism software (≦www.graphpad.com≧).
as §1

Substance | IC50 [1] [µM] | IC50 [2] [nM]
Biotinylated Cyclo(RGDyK) [cyclo (RGDyK)-Bio, reference compound] | 1.35 ± 0.09 | 
cGRGD-NGlu-Ppca-c [LXW72] |  | > 10000
